US6132750A, “Particles of cross-linked proteins and polysaccharides with hydroxamic groups for chelating metals and their uses notably in cosmetics” (Coletica, priority 1998, dated 2000)

Experiment: Inhibition of the Fe2+ induced radical degradation of hyaluronic acid (viscosity drop)
Conditions: concentration used 319 mg/l; hyaluronic acid 10 g/l, Fe2+ 620 ppm
Description: The chelating microspheres prepared according to I2 are used to evaluate their capacity, via the trapping of ferrous iron Fe2+, to inhibit the radical degradation of hyaluronic acid, glycosarinoglycan implied in the moisturisation of the human dermis, which is therefore a particularly important target to protect in cosmetic and dermo-pharmaceutical applications.
A 10 g/l solution of hyaluronic acid of high molecular weight (>1,000,000g/mol or Daltons) is prepared in demineralised water. To this solution is added an amount of Fe2+ of 620 ppm.
Other chelating agents which are conventionally used in cosmetics were used and compared to the chelating microspheres, for their capacity to reduce the radical degradation of hyaluronic acid. Indices of protection, expressed in % of protection, are calculated by carrying out a ratio of the drop in viscosity observed by the presence of iron Fe2+ (620 ppm) in the presence of the chelating agent studied, and the drop in viscosity observed with and without iron Fe2+.

Substance: Ferritin
- Index of protection (%): 0%
